Measured values published in ChEMBL document CHEMBL1122429, “In vitro and in vivo protection of acetylcholinesterase against organophosphate poisoning by pretreatment with a novel derivative of 1,3,2-dioxaphosphorinane 2-oxide” (1983).

Experiments:
Conditions in all cases: in vivo
[1] = species: Mus musculus; test: Acute toxicity in mouse
[2] = species: Rattus norvegicus; test: Acute toxicity was evaluated in rat
[3] = species: Mus musculus; test: Acute toxicity was evaluated in mouse

SMILES	LD50 [1] [mg/kg]	LD50 [2] [mg/kg]	LD50 [3] [mg/kg]
C[N+](C)(C)c1cccc(O)c1.[I-]	59.9		
CN(C)C(=O)Oc1ccc[n+](C)c1.[Br-]		3.1	2.6
